# Reference: ChEMBL document CHEMBL1129961, “Design, synthesis, and antiviral evaluation of 2-chloro-5,6-dihalo-1-beta-D-ribofuranosylbenzimidazoles as potential agents for human cytomegalovirus infections” (J Med Chem, 1997)
# System: HFF
# Experiment: Visual cytotoxicity was scored on HFF cells at time of HCMV plaque enumeration
# Format: functional, cell-based, Homo sapiens
# Method in brief: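 Stationary HFF cells from the HCMV plaque assay, not affected by virus, inspected microscopically for cytotoxicity when plaques were counted after 7 days at 37 °C with compound at four to eight concentrations.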
structure (smiles),measurement,value
O=[N+]([O-])c1cc2nc(Cl)[nH]c2cc1[N+](=O)[O-],IC50,> 100 µM
